# Measured values from US20100167397A1, “ENDOCRINE CELL LINES AND METHOD OF USING THE SAME” (KYOWA HAKKO KOGYO CO., LTD., priority 2002, published 2010).
# The chains behind the UniProt entries cited, without tags or fusion partners. Where a name states a change or a piece, a line headed by the entry shows the natural chain unless it says otherwise.
# UniProt P35346: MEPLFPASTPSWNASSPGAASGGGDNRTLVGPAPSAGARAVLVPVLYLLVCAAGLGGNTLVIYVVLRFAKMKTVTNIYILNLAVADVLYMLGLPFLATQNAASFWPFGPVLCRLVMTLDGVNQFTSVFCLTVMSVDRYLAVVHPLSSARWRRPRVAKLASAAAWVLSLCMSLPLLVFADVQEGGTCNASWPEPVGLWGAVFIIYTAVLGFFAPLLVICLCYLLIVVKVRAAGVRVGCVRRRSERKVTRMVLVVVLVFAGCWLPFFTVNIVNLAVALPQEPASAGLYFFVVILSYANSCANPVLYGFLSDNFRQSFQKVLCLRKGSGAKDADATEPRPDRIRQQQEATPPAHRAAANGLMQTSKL
# Target: type 5 somatostatin receptor (sst5) (Homo sapiens, UniProt P35346)
# Assay: Assay cells / expression cloning for type 5 somatostatin receptor (sst5), Renilla luciferase reporter in GBCRC6
# Conditions: GBCRC6 with pAGal9-sst5; 100 nmol/L, 6 hours
substance,measurement,value
cortistatin,reactivity of sst5 to cortistatin (Renilla luciferase reporter),activation of sst5
